Screens deposited in PubChem by National Center for Advancing Translational Sciences (NCATS).
An excerpt weighted towards active compounds, which were near 0.92% of everything screened.
GALK inh: inhibitors of human galactokinase. P51570. Purified GALK, Kinase-Glo residual ATP luminescence. Potency, µM (titrated, usually from 57.5 µM), actives largely listed as inhibitors. 270,000 tested, 0.007% active. AID 1868
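Kinase-Glo Plus luminescence measured ATP left after a 1 h room-temperature reaction. The reaction used 5 nM GALK, 100 uM galactose and 35 uM ATP at pH 8.0 (20 mM HEPES, 5 mM MgCl2, 60 mM NaCl, 1 mM DTT, 0.01% BSA).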
Giardia killer: kills Giardia lamblia | Giardia lamblia trophozoite viability | activity change, % at 7.66 µM, hits read low | 340,000 tested, 0.15% active; in the data active means activity change below about -80%; inconclusive means between about -30% and that limit;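 further: parasites exposed to compound for two days anaerobically before the ATP read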
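Killing of trophozoites was scored by loss of ATP luminescence after a 48 hrs anaerobic exposure to compounds at 37 deg C, using 100 cells per well.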
FBPA coupling cs: counter-screen for Giardia aldolase inhibitors: coupling enzyme system; coupling enzyme system counterscreen, AmpLite Red fluorescence; activity change, negative = inhibition, % at 58.2 µM, hits read low; 290,000 tested, 0.67% active; in the data active means activity change below about -30%
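Compounds tested against the coupling enzymes alone at 57.5 uM final; readout was AmpLite Red fluorescence (525/598 nm) after 20 min at RT.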
miR-21 reporter: miR-21 reporter, rising signal; Potency, µM (doses to about 38.3 µM); HeLa miR-21 FLuc reporter, luciferase, 48 h; 340,000 tested, under 10 active; active = well fitted rising curve with a large enough effect; inconclusive = small, poorly fitted or top-dose-only effect; inactive = no such curve, though single readings can be large or run the other way;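 further: miR-21 action dims this reporter so a rising signal means less miR-21 action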
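Luminescence from a firefly luciferase reporter carrying a miR-21 binding site downstream, stably expressed under a CMV promoter in HeLa cells that make miR-21 endogenously, reports miRNA modulation after 48 h compound exposure up to approximately 40uM final.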
B2AR arrestin: agonists driving beta-arrestin recruitment to human beta2-adrenergic receptor | P07550 | beta-arrestin recruitment to beta2AR, cell-based reporter | Potency, µM (series often up to 46.1 µM), most hits filed as activators | 330,000 tested, 0.02% active | AID 492947; further: nearly all actives have a fitted effect of over 65% in size
uPA generation: blocks generation of uPA at the cell surface. cell surface uPA generation assay, qHTS. Potency, µM (titrated, usually from 38.3 µM), hits mostly inhibitors. 330,000 tested, 0.31% active. AID 540303; active means well fitted inhibition curve with a large enough effect; inconclusive means small, poorly fitted or top-dose-only effect; inactive means no such curve, though single readings can be large or run the other way; tested in mouse RAW 264.7 cells; further: nearly all actives have a fitted effect of over 55% in size
Numbers stand for hits; 0 = inactive; ? = inconclusive; - = not tested or not shown. Unless noted, the call rests on the fitted dose curve; in most records, active means well fitted curve in the direction sought with a large enough effect; inconclusive means small, poorly fitted or top-dose-only effect, or another doubt; inactive means no such curve, though single readings can be large; an effect the other way counts as inactive or inconclusive.

SMILES	GALK inh	Giardia killer	FBPA coupling cs	miR-21 reporter	B2AR arrestin	uPA generation
COc1cc(/C=C2\Oc3cc(O)ccc3C2=O)ccc1O	0	0	0	0	0	6.3µM
COc1ccc(CNCc2ccc(C(=O)O)s2)cc1	-	-	-	0	-	-
COCCNC(=O)c1ccc2c3n(nc2c1)-c1ccc(Cl)cc1CO3	0	0	0	0	0	10µM
C=CCNC(=O)c1ccc2c3n(nc2c1)-c1ccccc1CO3	0	?	0	0	0	1.4µM
COCCNC(=O)c1ccc2c3n(nc2c1)-c1ccccc1CO3	0	?	0	0	0	4µM
O=C(NCCO)c1ccc2c3n(nc2c1)-c1ccc(Cl)cc1CO3	0	0	0	0	0	?
COc1ccc2c(c1)C(=O)[C@H](OC(=O)Nc1cc(OC)c(OC)c(OC)c1)[C@@H](c1ccc(OC)c(Br)c1)O2	-	-	0	-	-	-
Cc1nc2c(c(C)c1CCC(=O)NCc1ccccc1)c(=O)n(C)c(=O)n2C	-	-	-	0	-	-
COc1ccc(CN2CCNC(=O)C2CC(=O)N2CCCCO2)cc1OC (stereo unspecified)	0	?	-30	0	0	0
CC(C)CC(=O)NC1CC(=O)N(c2ccc3c(c2)OCCO3)C1 (stereo unspecified)	-	-	-	0	-	-
COc1ccc2c3n([n+]([O-])c2c1)CCN=C3c1ccc(Cl)cc1	-	?	-	-	0	0
[O-][n+]1c2ccccc2c2n1CCCN=C2c1ccc(Cl)cc1	-	-84	-	-	0	0
Nc1c(Cl)cc(C2=NCCn3c2c2ccc(C(F)(F)F)cc2[n+]3[O-])cc1Cl	-	-94	-	-	0	0
Cc1ccc(C2=NCCn3c2c2ccc([N+](=O)[O-])cc2[n+]3[O-])cc1	-	?	-	-	0	0.71µM
Cc1ccc(C2=NCCn3c2c2ccccc2[n+]3[O-])cc1	-	-90	-	-	0	0
O=C(Nc1nnc(S(=O)(=O)N2CCc3ccccc32)s1)c1cccc(Cl)c1	-	-	-	0	-	-
[O-][n+]1c2ccccc2c2n1CCN=C2c1ccc(Cl)cc1	-	-84	-	-	0	0
Nc1c(Cl)cc(C2=NCCn3c2c2ccccc2[n+]3[O-])cc1Cl	-	?	-	-	0	0
N#CC1=C(N)SC(N)=C(C#N)C1c1ccoc1	0	-	-39	0	0	-
COc1cc(OC)cc(C2=Nn3c(nnc3-c3ccccc3O)SC2)c1	-	-	0	-	-	-
COc1ccccc1-c1cc(Nc2ccn[nH]2)ncn1	-	-	0	-	-	-
O=S(=O)(Nc1ccc(O)c2ccccc12)c1cccs1	0	0	-35	0	0	-
O=S(=O)(Nc1cccc2ccccc12)c1cccs1	0	0	-	0	0	0
O=C(Nc1ccon1)c1ccc(OC2CCCC2)cc1	0	?	0	0	0	10µM
O=C(/C=C/c1ccc(Br)cc1)NC(=O)c1ccccc1O	0	0	0	0	0	0
SMILES	GALK inh	Giardia killer	FBPA coupling cs	miR-21 reporter	B2AR arrestin	uPA generation
CSc1ccc(/C=C/C(=O)NC(=O)c2ccccc2O)cc1	0	0	0	0	0	11µM
CC1CCC2C(=O)N3CCCC3C(=O)N2C1c1ccc(Br)cc1 (stereo unspecified)	-	-	0	-	-	-
CCc1ccccc1NC(=O)c1ccc2c(O)c(S(=O)(=O)c3ccccc3)c(=O)[nH]c2c1	-	-	-	0	-	-
Cc1[nH][nH]c(=O)c1C(c1ccc(-c2cccc(Cl)c2)o1)c1c(C)[nH][nH]c1=O	?	0	-48	0	0	0
Cc1[nH][nH]c(=O)c1C(c1ccc(Br)cc1)c1c(C)[nH][nH]c1=O	0	0	0	0	0	0
O=c1[nH]nc(Cc2ccc(-c3cccc(Cl)c3)o2)c2ccccc12	0	0	0	0	0	0
Cc1[nH][nH]c(=O)c1C(c1ccc(-c2ccccc2C(=O)O)o1)c1c(C)[nH][nH]c1=O	?	0	-47	0	0	0
Cc1[nH][nH]c(=O)c1C(c1ccc(-c2ccc(Cl)cc2Cl)o1)c1c(C)[nH][nH]c1=O	0	-	-58	0	0	-
COC(=O)c1ccc(-c2ccc(C(c3c(C)[nH][nH]c3=O)c3c(C)[nH][nH]c3=O)o2)cc1	0	0	-45	0	0	0
O=C(CCc1ccccc1)NC1CC(=O)N(c2cccc(F)c2)C1 (stereo unspecified)	-	-	-	0	-	-
Cn1c2c(c3cnc4cc(Cl)ccc4c31)CN(Cc1ccc(Cl)cc1)CC2	-	0	-	-	-	-
COc1ccc(NC(=O)C2CCC(CNS(=O)(=O)c3ccc(Br)s3)CC2)c(OC)c1 (stereo unspecified)	-	-	-	0	-	-
Cc1[nH][nH]c(=O)c1C(c1ccc(-c2cccc(C(=O)O)c2)o1)c1c(C)[nH][nH]c1=O	0	0	-31	0	0	0
CNC(=S)N/N=C/c1ccc(-c2cccc(C(=O)O)c2)o1	0	0	0	0	0	0
CCOc1ccc(C2CC(=O)Nc3nc(SCc4ccccc4C)[nH]c(=O)c32)cc1OC (stereo unspecified)	-	-	-	0	-	-
COc1ccc(Nc2ccc3c(c2)=NC2(CCCCC2)[N+]=3[O-])cc1	0	0	-48	?	0	0
[O-][N+]1=c2ccc(Nc3ccccc3)cc2=NC12CCCCC2	0	0	-50	?	0	0
O=[N+]([O-])c1ccc2c(c1N1CCCCC1)=NC1(CCCCC1)[N+]=2[O-]	0	0	0	0	0	0
COc1ccc(NC2=NC(=S)N(c3ccccc3C)C23CCCCC3)cc1	0	0	0	0	0	0
COc1ccccc1Nc1cc(C)nc2nc(-c3ccccc3)nn12	-	-	-	0	-	-
CCCC(=O)NC(=S)N1CCN(c2ccc([N+](=O)[O-])cc2)CC1	0	0	-32	0	0	0
O=C1C2=CC[C@H]3C(=O)N(C4CCCCC4)C(=O)[C@@H]3[C@@H]2[C@H](O)[C@@H]2O[C@H]12	-	-	0	-	-	-
Cc1cccc(N2CCN(C(=S)Nc3ccc4nc(N5CCN(C)CC5)cc(C)c4c3)CC2C)c1 (stereo unspecified)	0	-89	0	0	0	0
